# Measurements taken from publication PMC6792350 (Environmental Health Perspectives, 2019).
# Key:
# [1] = Population semiphysiologically based 9-compartment TK model (NLME) of plasma and urine data in piglets
# Description: The NLME model was therefore developed by combining the plasma and urinary data sets from the five TK experiments carried out in piglets, except for the urinary BPA concentration obtained after oral administration of BPA.
# Different compartmental models and submodels were tested and compared using the likelihood ratio test (LRT). The primary parameters of the model, namely the volumes of distribution ( VBPA , VBPAG , VBPS , VBPSG ) and the first-order rate constants ( Kij ) and their associated precisions [standard error (SE)] were estimated by minimizing an objective function value (OFV) expressed as minus twice the log of the likelihood estimation ( −2LL ).
# The between-subject variability (BSV) of the parameters was evaluated using the exponential model θparameter_i=θtv_parameter×exp(ηi) , where θparameter_i is the parameter estimated for the i^th individual, θtv_parameter is the typical population value of the parameter, and ηi is the deviation associated with the i^th individual from the corresponding value of the parameter at the population level. The distribution of ηi was assumed to be normal with a mean of 0 and a variance ω² . The BSV was reported as a coefficient of variation (CV) in the original scale CV(%)=100× exp (ω^2)−1 .
# The residual variance was modeled using a combined additive and proportional error model Cobsij=Cpredij(1+ε1ij)+ε2ij where Cobsij and Cpredij are respectively the j^th observed and predicted concentrations for the i^th individual and ε1ij and ε2ij the multiplicative and additive residual errors.
# The bootstrap tool (20 replicates) was used to evaluate the mean, median, SE, and coefficient of variation of the parameter estimates. The predictive ability of the model was checked graphically by plotting Visual Predictive Check plots to compare the observed data with the selected quantiles (here 20th, 50th and 80th percentiles) of data simulated using the model and obtained from 200–1,000 replicates from each animal based on the structure of the original data (i.e., dosing, timing and number of samples).
# For the LRT test, the critical value of the χ^2 distribution considered for a given nominal risk and a given number of degrees of freedom was obtained using the Excel function CHISQ.INV.RT().
# Figure 1. Schematic representation of the compartmental model. […] The link between the two central compartments was modeled with a compartment (CP2) that should be viewed as the liver. […] The fraction of absorbed BPA that is not hepatically transformed reaches the CP3 via K23 . The exchanges between CP2 and CP3 are bilateral, K32 being the rate constant between CP3 and CP2 and K23 the rate constant between CP2 and CP3. […] It was assumed that no phase-two metabolite other than BPAG (BPSG) was formed.
# (12) Bioavailability=K12/K12+K110+K10×(1−K25/K25+K23) with K10 , K12 , K110 , K23; K25 as defined above.
# [2] = Noncompartmental toxicokinetic analysis of plasma after IV dosing in piglets; settings: from hepatic extraction ratio
# Description: Table 1 summarizes the protocol of the experiments and the plasma and urine datasets further considered for TK analyses. A first experiment (Exp. 1) was performed in 8 male piglets age 42 d ( 20.8±1.6kg BW) to investigate oral BPA TK. […] BPA data obtained after IV BPA administrations had already been used to evaluate human BPA clearance using an allometric approach ([Collet et al. 2015]).
# For the IV administrations, BPA powder was dissolved in ethanol–propylene glycol (1:49, vol:vol) at 50mg/mL (Exp.1 and 2) and in ethanol–saline (1:2, vol:vol) at 23mg/mL (Exp. 5).
# During the first 24 h of sampling, the piglets were housed individually in stainless steel cages.
# The plasma analytes concentration–time data from individual piglets were used to derive the maximum concentration (Cmax), and the time to maximum concentration (Tmax). The area under the plasma concentration–time curves from dosing time to the time of the last measurable concentration ( AUC0–tlast ) were calculated using the linear trapezoidal rule (Equation 1). (1) AUC0–tlast=∑0tlast(Ci−1+Ci/2)×(ti−ti−1) where Ci is the concentration obtained at the time i ( ti ).
# The area under the plasma concentration time curve from t=0 to infinity ( AUC0–inf ) was obtained using Equation 2. […]
smiles,measurement,setting,value
"O=S(=O)(c1ccc(O)cc1)c1ccc(O)cc1 [BPS, bisphenol S]","tvK23, distribution rate constant liver to plasma, Mean",[1]; bootstrap mean,84.0 h⁻¹
same,"tvK32, distribution rate constant, Mean",[1]; bootstrap mean,7.119 h⁻¹
same,"tvK34, distribution rate constant, Mean",[1]; bootstrap mean,0.270 h⁻¹
same,"tvK43, distribution rate constant, Mean",[1]; bootstrap mean,0.519 h⁻¹
same,"tvK23, distribution rate constant liver to plasma, Median",[1]; bootstrap median,83.489 h⁻¹
same,"tvK32, distribution rate constant, Median",[1]; bootstrap median,7.091 h⁻¹
same,"tvK43, distribution rate constant, Median",[1]; bootstrap median,0.512 h⁻¹
same,fraction of the dose reaching the liver unchanged,"[1]; oral, % of administered dose",~100%
same,hepatic first-pass effect: fraction of compound reaching the liver that is glucuronidated,"[1]; oral, % of the fraction reaching the liver",41%
same,"Fraction of administered compound reaching the liver by the portal blood flow, Mean","[1]; oral, bootstrap mean",0.986
same,"Fraction of administered compound reaching the liver by the portal blood flow, Median","[1]; oral, bootstrap median",0.989
same,"tvV, volume of the central compartment, Mean","[1]; population primary parameter, bootstrap mean",0.301 L/kg
same,fraction escaping presystemic metabolism,[2],63%
